Experimental data from patent US4514403A, “Hydrouracil compounds” (Yoshitomi Pharmaceutical Industries Ltd., priority 1980, dated 1985).
Counter-ions that a name gives are not always drawn. Like-named read-outs stand apart in the source and are kept apart here.

Legend:
[1] = Bradykinin nociception test; settings: for ED50: Rattus norvegicus, read-out: Bradykinin Nociception Test ED50
Hot plate test = settings: Rattus norvegicus, sc, read-out: Hot Plate Test ED50
[2] = rat, in vivo
Mouse jumping test = settings: administration at a lethal dose
[3] = Antagonism by levallorphan in electric stimuli test; settings: electric stimuli test in mice; levallorphan (narcotic antagonist)
Tolerance test = assay type: in vivo; settings: continuous administration
[4] = Phenylquinone writhing test; settings: for ED50: Mus musculus, read-out: Phenylquinone Writhing Test ED50
Electric stimuli test = settings: for ED50: Mus musculus, read-out: Electric Stimuli Test ED50
in vivo = settings: rat
[5] = tested on: evoked potentials in central nervous system; assay: Effect on the various evoked potentials in central nervous system; assay type: in vivo, Male Wistar rats; parameters: key to Amplitude of Evoked Responses, VP-COR / Amplitude of Evoked Responses, HIP-AMY / Amplitude of Evoked Responses, HIP-SEP: -: No change; --: No change; (+): Levallorphan antagonism; (-): Levallorphan antagonism
Experimental: Male Wistar rats, weighing 300-350 g, were used under ethyl ether anesthesia. The trachea and femoral vein were cannulated for artificial respiration and drug injection, respectively. Immobilization of the rat was maintained by gallamine thioethiodide (10 mg/kg) given intravenously every one hours. All wound edges were infiltration with carbocaine hydrochloride. The experiments began after at least 2 hours had elapsed from discontinuance of ether anesthesia. The COR (somatosensory cortex) evoked potentials by VP (neucleus ventralis posterior thalamus) stimulation (VP - COR evoked potential) were recorded from somatosensory cortex, through a silver electrode applied directly to the cortex. In order to record VP and MRF (midbrain reticular formation) evoked potentials by sciatic nerve stimulation or AMY (amygdala) and SEP (septum) evoked potentials by HIP (hippocampus) stimulation, bipolar stainless steel electrodes were stereotaxically placed into the VP, MRF, AMY, SEP and HIP. The stimuli were delivered to various sites every 2 seconds from a stimulation and consisted of 0.1 msec rectangular pulses (twice threshold intensity). The evoked responses were visualized on an oscilloscope. All records were made up of 20 superimposed tracings.

AgNO3 arthritis test = settings: for ED50: Rattus norvegicus, sc, read-out: AgNO3 Arthritis Test ED50
[6] = tested on: ventro-medial hypothalamus; settings: compared with Test compound B; cited from earlier work

Row | SMILES | ED50 ([1]; po) [mg/kg] | ED50 ([1]; sc) [mg/kg] | ED50 (Hot plate test) [mg/kg] | tolerance (decrease of effects) (Tolerance test) | ED50 ([4]; po) [mg/kg] | ED50 ([4]; sc) [mg/kg] | ED50 (Electric stimuli test; po) [mg/kg] | ED50 (Electric stimuli test; sc) [mg/kg] | LD50 (in vivo; ip) [mg/kg] | LD50 (in vivo; po) [mg/kg] | LD50 (in vivo; sc) [mg/kg] | Amplitude of Evoked Responses, HIP-SEP ([5]; 5 mg/kg i.v.) | Amplitude of Evoked Responses, VP-COR ([5]; 5 mg/kg i.v.) | Amplitude of Evoked Responses, HIP-SEP ([5]; 10 mg/kg i.v.) | ED50 (AgNO3 arthritis test) [mg/kg] | other results
1 | CN1C(=O)CCN(C2CCN(CCc3ccccc3)CC2)C1=O [Test compound C, 1-(1-phenethyl-4-piperidyl)-3-methyl-hydrouracil hydrochloride] | 400 | 70 | 10 | did not cause a significant decrease of effects | 5 | 1.5 | 220 | 50 | 150 | 900 | 700 | -- | -- | -- | 45 | compensatory adjustment against codeine [2]: had not compensatory adjustment against codeine; jumping symptom (Mouse jumping test): did not cause any jumping symptom; Influence of levallorphan on analgesic activity [3]: did not influence the analgesic activity; body weight reduction (rat, in vivo): not reduced; cross tolerance against codeine (Tolerance test): did not show a cross tolerance against codeine; Amplitude of Evoked Responses, HIP-AMY ([5]; 5 mg/kg i.v.): --; Amplitude of Evoked Responses, HIP-AMY ([5]; 10 mg/kg i.v.): --; Amplitude of Evoked Responses, HIP-AMY ([5]; 25 mg/kg i.v.): --; Amplitude of Evoked Responses, HIP-SEP ([5]; 25 mg/kg i.v.): --
2 | CCCC(C)C1(CC)C(=O)NC(=O)NC1=O (stereo not drawn) [pentobarbital] |  |  |  |  |  |  |  |  |  |  |  |  |  |  |  | inhibition of threatening and rage reactions [6]: less active
3 | CN1CC[C@]23c4c5ccc(O)c4O[C@H]2[C@@H](O)C=C[C@H]3[C@H]1C5 [Morphine] | 50 | 6 | 4 |  | 2.1 | 0.4 |  | 3 |  |  |  |  |  |  | 0.8 | Inhibition (%) of Occurrence of Pain ([1]; rats, 2.5 mg/kg s.c.): 17%; Inhibition (%) of Occurrence of Pain ([4]; mice, 0.5 mg/kg s.c.): 78%; Electric Stimuli Test ED50 (Electric stimuli test; mice, p.o.): 17 mg/kg; Inhibition (%) of Occurrence of Pain (AgNO3 arthritis test; rats, 5 mg/kg s.c.): 100%
4 | COc1ccc2c3c1O[C@H]1[C@@H](O)C=C[C@H]4[C@@H](C2)N(C)CC[C@@]341 [Codeine, reference compound] |  |  |  | caused a clear tolerance |  |  |  |  |  |  |  |  |  |  |  | body weight reduction (rats, withdrawal): remarkably reduced
5 | CCOC(=O)C1(c2ccccc2)CCN(C)CC1 [Pethidine, reference compound] |  |  |  |  |  |  |  |  |  |  |  | -- | -- | -- |  | 
6 | O=C1CCN(C2CCN(CCc3ccccc3)CC2)C(=O)N1 [Test compound D, 1-(1-phenethyl-4-piperidyl)hydrouracil hydrochloride] |  | 25 | 200 |  | 4 | 2.5 | 220 | 100 | 180 | 500 | 450 |  |  |  | 90 | 
